pIC50: −log10 of the molar value.
Target: recombinant human Estrogen Receptor alpha ligand binding domain (ER alpha-LBD (GST)) (Homo sapiens (Human), UniProt P03372)
Experiment: ERα binding assay (LanthaScreen TR-FRET competition)
Details: read-out: ER binding IC50 value; competitive displacement of Fluormone ES2 tracer, 4 hours room temperature

The chains behind the UniProt entries cited, without tags or fusion partners. Residues count along the entry.
UniProt P03372, 307-554: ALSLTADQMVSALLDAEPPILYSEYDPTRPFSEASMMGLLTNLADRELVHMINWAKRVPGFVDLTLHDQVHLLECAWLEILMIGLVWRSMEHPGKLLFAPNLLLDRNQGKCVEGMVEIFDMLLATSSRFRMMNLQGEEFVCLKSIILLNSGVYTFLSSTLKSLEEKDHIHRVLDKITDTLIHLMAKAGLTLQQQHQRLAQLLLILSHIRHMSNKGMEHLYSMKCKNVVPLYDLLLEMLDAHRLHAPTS

SMILES | pIC50
COc1cc(OCCN2CC(CF)C2)cc(F)c1[C@@H]1c2ccc3[nH]ncc3c2C[C@@H](C)N1CC(F)(F)CO [Example 26, 2,2-difluoro-3-((6S,8R)-6-(2-fluoro-4-(2-(3-(fluoromethyl)azetidin-1-yl)ethoxy)-6-methoxyphenyl)-8-methyl-8,9-dihydro-3H-pyrazolo[4,3-f]isoquinolin-7(6H)-yl)propan-1-ol] | 8.42
C[C@@H]1Cc2c(ccc3[nH]ncc23)[C@@H](c2ccc(OCCN3CC(CF)C3)cc2)N1CC1(F)COC1 [Example 31, (6R,8R)-6-(4-(2-(3-(fluoromethyl)azetidin-1-yl)ethoxy)phenyl)-7-((3-fluorooxetan-3-yl)methyl)-8-methyl-6,7,8,9-tetrahydro-3H-pyrazolo[4,3-f]isoquinoline] | 8.85
C[C@@H]1Cc2c(ccc3[nH]ncc23)[C@@H](c2ncc(OCCN3CC(CF)C3)cc2F)N1CC(F)(F)F [Example 50, (6S,8R)-6-(3-fluoro-5-(2-(3-(fluoromethyl)azetidin-1-yl)ethoxy)pyridin-2-yl)-8-methyl-7-(2,2,2-trifluoroethyl)-6,7,8,9-tetrahydro-3H-pyrazolo[4,3-f]isoquinoline] | 8.68
COc1cc(OCCN2CC(CF)C2)ccc1[C@@H]1c2ccc3[nH]ncc3c2C[C@@H](C)N1CC(F)(F)CF [Example 22, (6S,8R)-6-(4-(2-(3-(fluoromethyl)azetidin-1-yl)ethoxy)-2-methoxyphenyl)-8-methyl-7-(2,2,3-trifluoropropyl)-6,7,8,9-tetrahydro-3H-pyrazolo[4,3-f]isoquinoline] | 8.72
COc1cc(OCCN2CC(CF)C2)ccc1[C@@H]1c2ccc3[nH]ncc3c2C[C@@H](C)N1CC(C)(F)CF (single isomer, unassigned) [Example 21] | 8.70
CC(C)CN1C(c2c(F)cc(OCCN3CC(CF)C3)cc2F)c2ccc3[nH]ncc3c2CC1(C)C (centres unmarked) [Example 36, 6-(2,6-difluoro-4-(2-(3-(fluoromethyl)azetidin-1-yl)ethoxy)phenyl)-7-isobutyl-8,8-dimethyl-6,7,8,9-tetrahydro-3H-pyrazolo[4,3-f]isoquinoline] | 8.72
CC(C)(F)CN1[C@H](C(F)F)Cc2c(ccc3[nH]ncc23)[C@@]1(C)c1c(F)cc(OCCN2CC(CF)C2)cc1F [Example 4, (6S,8S)-6-(2,6-difluoro-4-(2-(3-(fluoromethyl)azetidin-1-yl)ethoxy)phenyl)-8-(difluoromethyl)-7-(2-fluoro-2-methylpropyl)-6-methyl-6,7,8,9-tetrahydro-3H-pyrazolo[4,3-f]isoquinoline] | 9.30
COc1cc(OCCN2CC(CF)C2)ccc1[C@@H]1c2ccc3[nH]ncc3c2C[C@@H](C)N1CC(F)F [Example 7, (6S,8R)-7-(2,2-difluoroethyl)-6-(4-(2-(3-(fluoromethyl)azetidin-1-yl)ethoxy)-2-methoxyphenyl)-8-methyl-6,7,8,9-tetrahydro-3H-pyrazolo[4,3-f]isoquinoline] | 8.70
C[C@@H]1Cc2c(ccc3[nH]nc(F)c23)[C@@H](c2c(F)cc(OCCN3CC(CF)C3)cc2F)N1CC1(F)COC1 [Example 43, (6S,8R)-6-(2,6-difluoro-4-(2-(3-(fluoromethyl)azetidin-1-yl)ethoxy)phenyl)-1-fluoro-7-((3-fluorooxetan-3-yl)methyl)-8-methyl-6,7,8,9-tetrahydro-3H-pyrazolo[4,3-f]isoquinoline] | 8.66
C[C@@H]1Cc2c(ccc3[nH]ncc23)[C@@H](c2ccc(OCCN3CC(CF)C3)cn2)N1CC(C)(F)F [Example 41, (6S,8R)-7-(2,2-difluoropropyl)-6-(5-(2-(3-(fluoromethyl)azetidin-1-yl)ethoxy)pyridin-2-yl)-8-methyl-6,7,8,9-tetrahydro-3H-pyrazolo[4,3-f]isoquinoline] | 8.74
COc1cc(OCCN2CC(CF)C2)ccc1[C@@H]1c2ccc3[nH]ncc3c2C[C@@H](C)N1CC1(F)CC1 [Example 6, (6S,8R)-7-((1-fluorocyclopropyl)methyl)-6-(4-(2-(3-(fluoromethyl)azetidin-1-yl)ethoxy)-2-methoxyphenyl)-8-methyl-6,7,8,9-tetrahydro-3H-pyrazolo[4,3-f]isoquinoline] | 8.00
CC(C)CN1[C@H](c2ccc(OCCN3CC(CF)C3)cc2)c2ccc3[nH]ncc3c2C[C@H]1C [Example 28, (6R,8R)-6-(4-(2-(3-(fluoromethyl)azetidin-1-yl)ethoxy)phenyl)-7-isobutyl-8-methyl-6,7,8,9-tetrahydro-3H-pyrazolo[4,3-f]isoquinoline] | 8.72
CC(C)(F)CN1C(c2c(F)cc(OCCN3CC(CF)C3)cc2F)c2ccc3[nH]ncc3c2CC1(C)C (centres unmarked) [Example 37, 6-(2,6-difluoro-4-(2-(3-(fluoromethyl)azetidin-1-yl)ethoxy)phenyl)-7-(2-fluoro-2-methylpropyl)-8,8-dimethyl-6,7,8,9-tetrahydro-3H-pyrazolo[4,3-f]isoquinoline] | 9.00
C[C@@H]1Cc2c(ccc3[nH]ncc23)[C@@H](c2ncc(OCCN3CC(CF)C3)cc2F)N1CC(F)F [Example 48, (6S,8R)-7-(2,2-difluoroethyl)-6-(3-fluoro-5-(2-(3-(fluoromethyl)azetidin-1-yl)ethoxy)pyridin-2-yl)-8-methyl-6,7,8,9-tetrahydro-3H-pyrazolo[4,3-f]isoquinoline] | 8.39
COc1cc(OCCN2CC(CF)C2)cc(F)c1[C@@H]1c2ccc3[nH]ncc3c2C[C@@H](C)N1CC(F)(F)CF [Example 27, (6S,8R)-6-(2-fluoro-4-(2-(3-(fluoromethyl)azetidin-1-yl)ethoxy)-6-methoxyphenyl)-8-methyl-7-(2,2,3-trifluoropropyl)-6,7,8,9-tetrahydro-3H-pyrazolo[4,3-f]isoquinoline] | 8.59
C[C@@H]1Cc2c(ccc3[nH]ncc23)[C@@H](c2c(F)cc(OCCN3CC(CF)C3)cc2F)N1CC(F)CF (single isomer, unassigned) [Example 34] | 8.42
COCC(C)(F)CN1[C@H](c2ccc(OCCN3CC(CF)C3)cc2OC)c2ccc3[nH]ncc3c2C[C@H]1C (single isomer, unassigned) [Example 17] | 8.01
COc1cc(OCCN2CC(CF)C2)cc(F)c1[C@@H]1c2ccc3[nH]ncc3c2C[C@@H](C)N1CC(C)(F)F [Example 25, (6S,8R)-7-(2,2-difluoropropyl)-6-(2-fluoro-4-(2-(3-(fluoromethyl)azetidin-1-yl)ethoxy)-6-methoxyphenyl)-8-methyl-6,7,8,9-tetrahydro-3H-pyrazolo[4,3-f]isoquinoline] | 8.89
C[C@@H]1Cc2c(ccc3[nH]ncc23)[C@@H](c2ccc(OCCN3CC(CF)C3)cn2)N1CC(F)F [Example 51, (6S,8R)-7-(2,2-difluoroethyl)-6-(5-(2-(3-(fluoromethyl)azetidin-1-yl)ethoxy)pyridin-2-yl)-8-methyl-6,7,8,9-tetrahydro-3H-pyrazolo[4,3-f]isoquinoline] | 8.23
CC1(C)Cc2c(ccc3[nH]ncc23)C(c2ccc(OCCN3CC(CF)C3)cn2)N1CC(F)F (centres unmarked) [Example 45, 7-(2,2-difluoroethyl)-6-(5-(2-(3-(fluoromethyl)azetidin-1-yl)ethoxy)pyridin-2-yl)-8,8-dimethyl-6,7,8,9-tetrahydro-3H-pyrazolo[4,3-f]isoquinoline] | 8.15

Reference: US10125135B2, “Chemical compounds” (AstraZeneca AB, priority 2016, dated 2018)
